# Key:
# The chains behind the UniProt entries cited, without tags or fusion partners. Residues count along the entry.
# UniProt O60603, 21-784: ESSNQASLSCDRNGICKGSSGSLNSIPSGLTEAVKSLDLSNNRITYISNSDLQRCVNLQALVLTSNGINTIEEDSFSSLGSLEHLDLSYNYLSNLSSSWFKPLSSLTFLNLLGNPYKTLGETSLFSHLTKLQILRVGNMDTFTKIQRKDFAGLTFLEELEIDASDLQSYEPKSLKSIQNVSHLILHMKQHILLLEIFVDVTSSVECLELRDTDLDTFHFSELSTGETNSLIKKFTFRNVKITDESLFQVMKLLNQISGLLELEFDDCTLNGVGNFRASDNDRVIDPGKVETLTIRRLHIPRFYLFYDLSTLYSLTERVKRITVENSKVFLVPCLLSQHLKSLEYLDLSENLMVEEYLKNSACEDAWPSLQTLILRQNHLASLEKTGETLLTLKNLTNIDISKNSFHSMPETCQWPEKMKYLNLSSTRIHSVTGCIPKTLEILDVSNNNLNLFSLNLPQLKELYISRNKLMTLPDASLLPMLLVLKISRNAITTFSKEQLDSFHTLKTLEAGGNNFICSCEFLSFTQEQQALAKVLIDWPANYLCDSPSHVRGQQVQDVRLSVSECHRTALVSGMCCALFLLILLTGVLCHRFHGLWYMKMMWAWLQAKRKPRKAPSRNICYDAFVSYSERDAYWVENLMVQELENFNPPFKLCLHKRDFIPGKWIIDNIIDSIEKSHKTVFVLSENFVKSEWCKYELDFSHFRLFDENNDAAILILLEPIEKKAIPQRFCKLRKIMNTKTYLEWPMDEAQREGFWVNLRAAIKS
# UniProt Q15399, 25-786: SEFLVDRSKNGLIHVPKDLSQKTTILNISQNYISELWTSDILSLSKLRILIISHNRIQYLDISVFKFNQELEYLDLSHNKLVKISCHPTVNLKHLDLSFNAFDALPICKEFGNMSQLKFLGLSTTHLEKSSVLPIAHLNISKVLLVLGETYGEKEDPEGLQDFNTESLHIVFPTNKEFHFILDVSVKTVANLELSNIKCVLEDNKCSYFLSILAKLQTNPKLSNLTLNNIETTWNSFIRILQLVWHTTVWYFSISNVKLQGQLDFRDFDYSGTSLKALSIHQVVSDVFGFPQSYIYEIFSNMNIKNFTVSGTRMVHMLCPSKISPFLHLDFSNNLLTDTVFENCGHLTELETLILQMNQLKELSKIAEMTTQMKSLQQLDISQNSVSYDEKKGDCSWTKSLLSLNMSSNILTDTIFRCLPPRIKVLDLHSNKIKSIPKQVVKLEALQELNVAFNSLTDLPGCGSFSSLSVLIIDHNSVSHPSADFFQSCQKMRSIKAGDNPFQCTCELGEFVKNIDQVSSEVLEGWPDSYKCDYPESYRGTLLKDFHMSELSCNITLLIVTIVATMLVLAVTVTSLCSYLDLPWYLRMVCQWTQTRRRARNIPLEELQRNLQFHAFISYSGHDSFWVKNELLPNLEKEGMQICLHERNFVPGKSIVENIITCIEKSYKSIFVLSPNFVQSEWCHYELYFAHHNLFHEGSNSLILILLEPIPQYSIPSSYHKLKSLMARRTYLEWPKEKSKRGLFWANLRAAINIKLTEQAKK
# [1] = system: hfRPE cells or ARPE-19 cells; assay: Soluble MAC ELISA in cell culture supernatants; format: cell-based, human; settings: CEP-HSA in the presence of NHS; 24 h
# Method: (§1) MCP-1 (TebuBio), and Soluble MAC (Abbexa) was detected in cell supernatants by sandwich ELISA according to manufacturer's instructions. Absorbance was read at 450 nm on a 96 well plate spectrophotometer.
# (§2) Polarised ARPE-19 cells grown on transwell filters were maintained in serum free DMEM F-12 Ham for 48 hours. Cells were stimulated with 10% Normal human serum or heat inactivated normal human serum (Hi) (56° C. 30 minutes) either alone or with human serum albumin (HSA) or CEP-HSA for 24 hours. Where indicated cells were pre-treated for 1 hour with anti-TLR2 blocking antibody (T2.5 Invivogen), IgG control (0.1 μg/ml) or Mal peptide inhibitor (Calbiochem). Supernatants were harvested and assessed for soluble MAC formation by ELISA (Abbexa). Transwell inserts were fixed with 4% Paraformaldehyde for 10 minutes at room temperature, blocked with 5% bovine serum albumin (BSA) for 1 hour at room temperature and incubated with anti-mouse-05b-9 1:25 (Santa cruz) overnight at 4° C. Transwells were washed 3 times in PBS and incubated with goat anti-mouse 647 1:500 (Invitrogen) and Phallodin 1:500 (Invitrogen) for 2 hours at room temperature. Cells were counted stained with Hoechst. […] Staining was analysed using a confocal laser scanning microscope Axio Observer Z1 inverted microscope equipped with a Zeiss LSM 700 T-PMT scanning unit and a 40× plan.
# TLR2 [2] = biological target: T1, TLR2 (Homo sapiens, UniProt O60603+Q15399); assay: Immunoblot of secreted CFB and C3 in hfRPE supernatant; format: cell-based; settings: 17.5 or 35 μM CEP-HSA, 20 nM Pam3Cys4
# T1 construct: host or cells: ARPE-19 cells
# Method: (§3) Bone marrow derived macrophages (BMDMs), human monocytic cell like THP1s, PBMCs ARPE-19 cells, primary human fetal RPE cells or primary retinal microglia were stimulated with the generic TLR2/1 ligand Pam3Cys4 (Invivogen) or with CEP-HSA (kindly provided by Prof. Robert G Salomon (Case Western Reserve University, Cleveland Ohio) at indicated concentrations. Where indicated RPE cells were pre-treated with 0.1 μg/ml TLR2 antibody for 1 hour (T2.5 Invivogen), corresponding IgG control 0.1 μg/ml (Invivogen), Mal peptide inhibitor resuspended in DMSO 40 μM (Calbiochem) or an equal volume of DMSO was used in the control treatment.
# (§4) Antibodies for CFB (Atlas Antibodies Sigma) 1:250, C3 (MP Biomedicals-855444), C3d 1:1000 (Dako), ZO-1 (Invitrogen) 1:1000 and C5b-9 (Santa Cruz) 1:500 were incubated overnight at 4° C. Polyvinylidene fluoride (PVDF) membranes were wash 3 times with TBS-T and incubated with horseradish peroxidase conjugated anti-rabbit, anti-mouse or anti-goat 1:2000 (Sigma-Aldrich) for 1 hour at room temperature and developed using enhanced chemiluminescence. Densitometry was used to determine relative quantity of MAC and iC3b protein relative to actin loading control using Image J software. Scanned images were converted to 8-bit images. Each protein band was measured to obtain the area and mean value. The area was multiplied by the mean to obtain a measurement for each lane. […]
# TLR2 [3] = biological target: T1, TLR2; assay: qPCR of C3 and CFB in hfRPE cells stimulated with CEP-HSA, with or without anti-TLR2; format: cell-based; settings: 10 μM CEP-HSA 24 h, to similar levels observed for Pam3Cys4
# Method: as §3
# Total RNA was extracted from BMDMs, THP1s, ARPE-19 or hfRPE cells using Isolate II RNA extraction kit (Bioline) as per manufacturer's instructions. RNA was reverse transcribed using MMLV Reverse Transcriptase (Promega). Target genes were amplified by real time PCR with SensiFast SYBR Green (Bioline) using the ABI 7900HT system (Applied Biosystems). The cycling threshold method was used for relative quantification after normalisation to the ‘housekeeping’ gene βActin. The primers used were: […]
# TLR2 [4] = biological target: T1, TLR2; assay: MCP-1/CCL2 ELISA in ARPE-19 cell supernatants; format: cell-based
# Method: as §3
# 0.4 μM polyester transwell inserts (VWR) were coated with 100 μg/ml Collagen IV (Sigma-Aldrich C5533) for 4 hours. ARPE-19 cells were seeded at a density of 1.7×10^5 cells per cm^2 in DMEM F-12 Ham containing 10% (FBS). Two days later medium was replaced with complete medium containing 1% FBS and replenished twice weekly for 4-6 weeks.
# as §1
# hfRPE cells = assay: MAC formation on polarised hfRPE cells, confocal microscopy; format: cell-based, human; settings: 10% NHS and CEP-HSA vs 10% NHS and HSA; 24 h
# Method: Polarised ARPE-19 cells grown on transwell filters were maintained in serum free DMEM F-12 Ham for 48 hours. Cells were stimulated with 10% Normal human serum or heat inactivated normal human serum (Hi) (56° C. 30 minutes) either alone or with human serum albumin (HSA) or CEP-HSA for 24 hours. Where indicated cells were pre-treated for 1 hour with anti-TLR2 blocking antibody (T2.5 Invivogen), IgG control (0.1 μg/ml) or Mal peptide inhibitor (Calbiochem). Supernatants were harvested and assessed for soluble MAC formation by ELISA (Abbexa). Transwell inserts were fixed with 4% Paraformaldehyde for 10 minutes at room temperature, blocked with 5% bovine serum albumin (BSA) for 1 hour at room temperature and incubated with anti-mouse-05b-9 1:25 (Santa cruz) overnight at 4° C. Transwells were washed 3 times in PBS and incubated with goat anti-mouse 647 1:500 (Invitrogen) and Phallodin 1:500 (Invitrogen) for 2 hours at room temperature. Cells were counted stained with Hoechst. Transwells inserts were carefully cut with a sterile blade and mounted on to polysine coated slides (Thermo Scientific) using Mowiol® 4-88. Staining was analysed using a confocal laser scanning microscope Axio Observer Z1 inverted microscope equipped with a Zeiss LSM 700 T-PMT scanning unit and a 40× plan.
# TLR2 [5] = biological target: T1, TLR2; assay: ZO-1 western blot in hfRPE cells; format: cell-based; settings: 17.5 or 35 μM CEP-HSA, 20 nM Pam3Cys4, 24 h
# Method: as §3, §4
# TLR2 [6] = biological target: T1, TLR2; assay: Membrane attack complex (MAC) formation on ARPE-19 cells, confocal microscopy; format: cell-based; settings: CEP-HSA in the presence of 10% NHS; 24 h; only combination
# Method: as §3
# as §2, with “Transwell inserts were fixed with 4% Paraformaldehyde for 10 minutes at room temperature, blocked with 5% bovine serum albumin (BSA) for 1 hour at room temperature and incubated with anti-mouse-05b-9 1:25 (Santa cruz) overnight at 4° C. Transwells were washed 3 times in PBS and incubated with goat anti-mouse 647 1:500 (Invitrogen) and Phallodin 1:500 (Invitrogen) for 2 hours at room temperature.” left out
# [7] = polarized RPE cells on transwells >5 weeks, CEP or CEP+NHS
substance,measurement,setting,value
"CEP-HSA: 2-(w-Carboxyethyl) pyrrole (CEP) adducted to human serum albumin, oxidative stress product and TLR2 ligand",soluble MAC by ELISA,[1],significantly drive MAC formation
same,secreted CFB protein in supernatant,TLR2 [2]; 24 h,secretion
same,secreted C3 protein in supernatant,TLR2 [2]; 48 h,secretion
same,C3 transcripts,TLR2 [3],induced
same,CFB transcripts,TLR2 [3],induced
same,secretion of MCP-1/CCL2,"TLR2 [4]; ARPE-19, CEP-HSA+NHS over NHS or CEP-HSA alone",significant increase
same,MCP-1/CCL2 release into the apical compartment,TLR2 [4]; [7],strong cytokine release
same,MCP-1/CCL2 secretion into the basolateral compartment,TLR2 [4]; [7],no significant secretion
same,MAC formed on hfRPE cells,hfRPE cells,significantly more MAC
same,ZO-1 expression,TLR2 [5],marked decrease
same,MAC formation on the membrane of ARPE-19 cells,TLR2 [6],induced MAC formation
